From patent publication US20220274967A1, “BCAT MODULATION” (Icagen, LLC, priority 2019, published 2022)

Chains of the proteins cited; added tags and fusions are not shown. Residues count along the entry.
UniProt O15382, 28-392 limits assumed: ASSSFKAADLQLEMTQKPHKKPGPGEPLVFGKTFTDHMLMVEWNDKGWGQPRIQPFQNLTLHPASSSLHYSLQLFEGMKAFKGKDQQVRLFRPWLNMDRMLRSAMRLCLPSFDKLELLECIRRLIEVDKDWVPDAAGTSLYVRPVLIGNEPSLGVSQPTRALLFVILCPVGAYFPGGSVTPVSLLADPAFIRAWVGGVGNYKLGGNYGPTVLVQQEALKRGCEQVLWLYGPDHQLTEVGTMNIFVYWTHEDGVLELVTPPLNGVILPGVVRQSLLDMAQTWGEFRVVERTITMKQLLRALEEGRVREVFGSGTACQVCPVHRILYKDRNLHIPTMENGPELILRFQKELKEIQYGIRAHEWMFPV
UniProt P54687, whole entry: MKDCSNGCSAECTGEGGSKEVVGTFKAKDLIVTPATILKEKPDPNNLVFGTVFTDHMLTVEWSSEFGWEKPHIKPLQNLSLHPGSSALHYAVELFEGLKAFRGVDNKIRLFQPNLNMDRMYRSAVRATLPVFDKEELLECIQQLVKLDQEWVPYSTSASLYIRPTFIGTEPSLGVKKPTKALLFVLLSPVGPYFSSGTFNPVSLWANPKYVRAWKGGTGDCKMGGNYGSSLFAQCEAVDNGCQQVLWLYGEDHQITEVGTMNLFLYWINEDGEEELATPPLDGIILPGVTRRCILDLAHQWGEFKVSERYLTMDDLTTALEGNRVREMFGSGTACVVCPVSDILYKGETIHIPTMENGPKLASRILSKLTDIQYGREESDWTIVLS

Columns and labels:
BCAT2 = BCAT2 (Homo sapiens, UniProt O15382); experiment: BCAT2 enzyme inhibition (human); type: biochemical; details: read-out: BCAT2 ENZYME INHIBITION HUMAN IC50
BCAT1 = BCAT1 (Homo sapiens, UniProt P54687); experiment: BCAT1 enzyme inhibition (human), Glutamate Glo luminescence; details: read-out: BCAT1 ENZYME INHIBITION HUMAN IC50
GM00371 cells = experiment: Viability assay (Cell titer glo) in the 3-HIB assay; details: read-out: 3HIB INHIBITION IC50 (μM) MEAN GM00371 cells Viablility Assay, 24 hours

pIC50 (BCAT2) | pIC50 (BCAT1) | Compound | IC50 (GM00371 cells)
< 6.00 | < 6.00 | CNC(=O)c1ccc2c(c1)nc(-c1ccccn1)n2C1CCCN(C(=O)Cc2ccc(Cl)s2)C1 (stereo not drawn) | 
< 6.00 | < 6.00 | CNC(=O)c1ccc2c(c1)nc(-c1ccccn1)n2C1CCCN(C(=O)Nc2ccccc2Cl)C1 (stereo not drawn) | 
< 6.00 |  | COc1ccc(Nc2nc(N3CCCC3)c3ccccc3n2)cc1Cl | 
< 6.00 | < 6.00 | CNC(=O)c1ccc2c(c1)nc(-c1ccccn1)n2C1CCCN(C(=O)Nc2ccccc2)C1 (stereo not drawn) | 
> 7.00 |  | N#Cc1ccccc1-c1nc2cc(Cl)ncc2n1C1CCCC(NC(=O)c2ccc(Br)s2)C1 (stereo not drawn) | 0.5 to 1 µM

pIC50: −log10 of the molar value.
